Two molecules from patent publication US20020015967A1, “FUNCTIONAL EXPRESSION OF ADENOSINE RECEPTORS IN YEAST” (priority 1998, published 2002) can be followed below.

Protein sequences, listed by entry. Tags and fused reporters are not part of them.
UniProt P30542, whole entry: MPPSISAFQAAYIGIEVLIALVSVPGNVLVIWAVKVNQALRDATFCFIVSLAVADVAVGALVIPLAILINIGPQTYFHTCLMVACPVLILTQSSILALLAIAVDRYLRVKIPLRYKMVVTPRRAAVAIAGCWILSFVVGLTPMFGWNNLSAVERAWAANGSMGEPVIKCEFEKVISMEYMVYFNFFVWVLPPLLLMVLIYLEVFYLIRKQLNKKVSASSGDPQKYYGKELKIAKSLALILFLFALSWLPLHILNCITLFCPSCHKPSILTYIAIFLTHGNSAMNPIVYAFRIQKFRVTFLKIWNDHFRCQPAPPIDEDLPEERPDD

Experiment [1] concerns the target T1, human A2a receptor (Homo sapiens, UniProt P29274).
T1 construct: expressed in transfected cells; host or cells: Saccharomyces cerevisiae (CY8342 carrying mutant rat Galphas; plasmid pLPBX-A2a)
The experiment is described as follows: fus1-β-galactosidase assay in yeast expressing human A2a adenosine receptor. The format is cell-based.

Experiment [2] concerns the target T2, human A1 adenosine receptor (Homo sapiens, UniProt P30542).
T2 construct: yeast alpha-factor prepro leader (N, cleaved yes); expressed in transfected cells; host or cells: Saccharomyces cerevisiae (CY7967-derived strain CY12660; plasmid p5095)
Nature of the experiment: Fus1-β-galactosidase assay in yeast expressing human A1 adenosine receptor. The format is cell-based. The following applies: NECA concentration 10^−8 M; yeast co-expressing Ste18-Gγ2 chimera and GPA41-Gαi3; 5 h; CPRG substrate.

SMILES strings stand for the structures.

For `CCCn1c(=O)c2[nH]c(C3CCCC3)nc2n(CCC)c1=O` [DPCPX], the “antagonist activity in A2a yeast-based assay” value in experiment [1] is recorded as “relatively inert”. Regarding `CCNC(=O)[C@H]1O[C@@H](n2cnc3c(N)ncnc32)[C@H](O)[C@@H]1O` [NECA, 5′-N-ethylcarboxamido-adenosine], the “stimulation of β-galactosidase activity” value in experiment [2] is reported as “approximately 2 fold”.
